Experimental data as given in ChEMBL document CHEMBL1136958, “Design and optimization of renin inhibitors: Orally bioavailable alkyl amines” (Bioorg Med Chem Lett, 2009).

Amino acid sequences for entries named in this document (tags omitted). A change or cut given only in a name is not applied to a line headed by its entry.
UniProt P00797: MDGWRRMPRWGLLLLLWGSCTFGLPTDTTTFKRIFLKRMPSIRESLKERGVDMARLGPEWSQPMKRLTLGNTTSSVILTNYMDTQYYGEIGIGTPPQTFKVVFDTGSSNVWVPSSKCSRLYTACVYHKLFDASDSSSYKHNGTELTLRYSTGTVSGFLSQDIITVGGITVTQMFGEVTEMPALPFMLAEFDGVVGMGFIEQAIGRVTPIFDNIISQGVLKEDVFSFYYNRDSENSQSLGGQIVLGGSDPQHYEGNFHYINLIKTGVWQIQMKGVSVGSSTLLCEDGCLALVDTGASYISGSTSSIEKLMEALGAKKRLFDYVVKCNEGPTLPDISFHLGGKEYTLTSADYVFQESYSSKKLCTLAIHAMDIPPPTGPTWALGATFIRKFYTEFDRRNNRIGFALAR

Biological target: Renin (Homo sapiens, UniProt P00797)
Assay: Inhibition of human recombinant renin

IC50: 0.47 nM
Compound: CNC[C@H](CC1CCCCC1)NC(=O)N1CCC[C@@H]([C@@](O)(CCCCOC)c2cccc(Cl)c2)C1
